From patent US10383835B2, “Treatment of inflammatory disorders in non-human mammals” (The Regents of the University of California, priority 2012, dated 2019) come the findings set out here.

Chains of the proteins cited; added tags and fusions are not shown. Residues count along the entry.
UniProt A0A8I3NJL8, 1-556: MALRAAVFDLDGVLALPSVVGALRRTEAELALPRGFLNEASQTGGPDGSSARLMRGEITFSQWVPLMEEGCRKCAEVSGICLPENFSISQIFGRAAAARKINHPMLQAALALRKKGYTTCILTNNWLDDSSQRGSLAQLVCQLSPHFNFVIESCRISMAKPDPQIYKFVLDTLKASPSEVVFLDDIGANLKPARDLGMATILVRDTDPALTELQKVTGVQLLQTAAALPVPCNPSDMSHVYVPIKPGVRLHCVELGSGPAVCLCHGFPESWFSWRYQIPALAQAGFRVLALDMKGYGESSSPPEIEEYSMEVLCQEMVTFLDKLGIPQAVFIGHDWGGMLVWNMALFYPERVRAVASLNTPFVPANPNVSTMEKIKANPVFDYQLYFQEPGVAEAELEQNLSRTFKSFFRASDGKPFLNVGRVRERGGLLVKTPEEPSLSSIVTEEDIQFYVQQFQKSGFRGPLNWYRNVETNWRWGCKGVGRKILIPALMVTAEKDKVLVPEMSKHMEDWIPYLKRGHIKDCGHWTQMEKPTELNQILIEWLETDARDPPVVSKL
UniProt Q6Q2C2, whole entry: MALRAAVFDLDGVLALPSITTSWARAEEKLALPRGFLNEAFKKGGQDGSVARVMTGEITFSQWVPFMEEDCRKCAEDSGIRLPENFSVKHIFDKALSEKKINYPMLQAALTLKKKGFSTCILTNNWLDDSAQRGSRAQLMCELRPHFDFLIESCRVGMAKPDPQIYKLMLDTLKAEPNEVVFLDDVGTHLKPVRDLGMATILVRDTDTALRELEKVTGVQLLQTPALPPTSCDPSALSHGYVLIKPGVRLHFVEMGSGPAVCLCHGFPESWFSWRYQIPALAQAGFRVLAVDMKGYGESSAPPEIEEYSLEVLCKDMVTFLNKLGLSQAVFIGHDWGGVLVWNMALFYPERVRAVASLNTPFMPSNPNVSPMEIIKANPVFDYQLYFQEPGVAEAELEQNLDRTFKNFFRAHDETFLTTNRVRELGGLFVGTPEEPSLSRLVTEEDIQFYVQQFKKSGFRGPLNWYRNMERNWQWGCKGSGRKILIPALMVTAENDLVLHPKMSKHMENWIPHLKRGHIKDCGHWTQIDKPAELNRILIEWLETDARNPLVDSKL

The target in test [1] is Canine sEH (Canis lupus familiaris, UniProt A0A8I3NJL8). The test can be described thus: sEH Inhibitor Screen of Canine sEH. The test is classed as biochemical. To be noted: [I] = 100 nM.
In test [2] the test system is horse with pain due to laminitis. The test can be described thus: Pain (VAS) and blood pressure in one horse with naturally occurring laminitis, multimodal analgesic therapy. In kind it is in vivo. From the text: Soft Ride boots were applied bilaterally.
The target of test [3] is Pig sEH (Sus scrofa (Pig), UniProt Q6Q2C2). The test can be described thus: sEH inhibitor screen of domestic animals; MNPC on recombinant enzyme. In kind it is biochemical.

One may read the inhibition as the change of the read-out against control, counted positive when it falls. A lower inhibition goes with a response near the control. The compound `O=C(Nc1ccc(OC(F)(F)F)cc1)N[C@H]1CC[C@H](Oc2ccc(C(=O)O)cc2)CC1` [compound 1728] displayed an inhibition at 0.1 µM in test [1] of 92%. The “average VAS pain score” value in test [2] (day 8, after first dose of t-TUCB 0.1 mg/kg IV, VAS 0=no pain, 10=worst possible pain, with phenylbutazone and gabapentin) worked out at 5.5. The “blood pressure following t-TUCB administration” value in test [2] (hypertensive laminitic horse, t-TUCB 0.1 mg/kg once daily IV) is given as “progressively decreased to physiologic normal values”. Also, the “Pain scores following t-TUCB administration” value in test [2] (t-TUCB 0.1 mg/kg once daily IV, days 8 to 12) is “decreased sharply and remarkably”.

Broadly, the IC50 is the concentration needed to halve the response being measured. `O=C(O)CCCCCCCCCCCNC(=O)NC12CC3CC(CC(C3)C1)C2` [compound 700, 12-(3-adamantan-1-yl-ureido) dodecanoic acid]: the IC50 in test [3] is 11 nM.
